In article PMC12144510, “SIRT3 Functions as an Eraser of Histone H3K9 Lactylation to Modulate Transcription for Inhibiting the Progression of Esophageal Cancer” (Molecular & Cellular Proteomics : MCP, 2025):

Target: T1, human SIRT3 (Homo sapiens, UniProt Q9NTG7)
T1 construct: Truncated hSIRT3 (NAD^+ dependent deacetylase domain, 118–399 aa) was cloned into a pET-28b-SUMO vector; 6xHis-SUMO (N, cleaved yes); made in house; host or cells: E. coli BL21 (DE3)
T1 sequence (Q9NTG7 118-399): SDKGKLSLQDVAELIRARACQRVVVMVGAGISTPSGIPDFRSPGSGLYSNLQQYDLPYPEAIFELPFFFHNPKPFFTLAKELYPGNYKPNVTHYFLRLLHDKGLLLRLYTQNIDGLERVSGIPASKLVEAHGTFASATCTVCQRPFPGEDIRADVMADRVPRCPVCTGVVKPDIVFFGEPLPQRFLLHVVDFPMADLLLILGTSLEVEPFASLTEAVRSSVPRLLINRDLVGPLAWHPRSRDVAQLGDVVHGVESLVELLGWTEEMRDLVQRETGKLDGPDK
Test: Isothermal titration calorimetry, wild-type SIRT3
Format: binding
Details: ITC, 25 °C, absence of NAD^+

## H3K9un: first 17 amino acids from H3 without lactylation and acetylation on lysine 9 followed by two glycines and a biotinylated lysine
  binding to SIRT3 (in words): not to the H3K9un peptide
